Results from patent US12507703B2, “Methods, devices and compositions for preserving human milk” (The Trustees of Princeton University, priority 2023, dated 2025).

System: lipase
Assay: Lipase/lipolysis assay (EnzChek Lipase Substrate, quenched BODIPY-fatty acid conjugate) on stored human milk; further: test concentration or dose not given here
Conditions: stored 1 week at −20° C.
[1] = Food-Sourced Compound Library compound added to fresh human milk, thawed at room temperature, RFU <400 considered a hit
[2] = Food Additive Library compound added to fresh human milk, thawed at room temperature, RFU of <400 considered a hit
[3] = compound added to fresh human milk, thawed at room temperature, RFU <400 considered a hit
[4] = Biolog PM4 compound added to fresh human milk, RFU <400 = hit
[5] = Biolog PM1 compound added to fresh human milk, RFU <400 = hit
[6] = Biolog PM5 compound added to fresh human milk, RFU <400 = hit
[7] = Biolog PM2a compound added to fresh human milk, RFU <400 = hit

OC[C@H]1O[C@@H](OCCc2ccc(O)cc2)[C@H](O)[C@@H](O)[C@@H]1O [Salidroside]
Lipase (RFU) [1]: 703.1377 RFU

CC=Cc1ccc(O)c(OC)c1 [Isoeugenol]
Lipase (RFU) [2]: 1084.439 RFU | Lipase (RFU) [3]: 1139.306 RFU

COc1cc(CNC(=O)CCCC/C=C/C(C)C)ccc1O [Capsaicin]
Lipase (RFU) [2]: 1060.242 RFU

C[C@H]1[C@H](C)CC[C@]2(C)CC[C@]3(C)C(=CC(=O)[C@@H]4[C@@]5(C)CC[C@@H](O)[C@](C)(C(=O)O)[C@@H]5CC[C@]43C)[C@H]12 [11-Keto-beta-boswellic acid]
Lipase (RFU) [1]: 826.4636 RFU

CC(C)CC(=O)C(=O)O [4-Methyl-2-oxopentanoic acid]
Lipase (RFU) [2]: 713.9034 RFU

O=C(O)CC[C@@H](O)C(=O)O.[Na].[Na] [D-α-Hydroxyglutaric acid (disodium)]
Lipase (RFU) [3]: 895.488 RFU

NCCCCC(=O)O [5-Aminovaleric acid]
Lipase (RFU) [1]: 867.767 RFU

COc1cc(C(C)C)ccc1C [Carvacrol methyl ether]
Lipase (RFU) [3]: 880.5361 RFU

COc1cc(/C=C/C(=O)O)ccc1O [Ferulic acid]
Lipase (RFU) [2]: 828.4832 RFU | Lipase (RFU) [1]: 805.3139 RFU

CC1(C)S[C@@H]2[C@H](NC(=O)[C@H](N)c3ccc(O)cc3)C(=O)N2[C@H]1C(=O)O [Amoxicillin]
Lipase (RFU) [3]: 971.1374 RFU

CC1=CC(=O)NS(=O)(=O)O1 [Acesulfame (potassium)]
Lipase (RFU) [2]: 1443.891 RFU

O=C(O)CP(=O)(O)O [Phosphono Acetic Acid]
Lipase (RFU) [4]: 973.2717 RFU

CO[C@H]1[C@H](O)[C@@H](O)[C@@H](O)[C@@H](O)[C@@H]1O [Sequoyitol]
Lipase (RFU) [3]: 997.9244 RFU

COC(=O)/C=C/c1ccc(O)cc1 [Methyl p-coumarate]
Lipase (RFU) [3]: 959.8824 RFU

N[C@H](CC(=O)O)C(=O)O [D-Aspartic Acid]
Lipase (RFU) [5]: 878.5051 RFU | Lipase (RFU) [6]: 1152.002 RFU

CC(=O)C(=O)O [Pyruvic Acid]
Lipase (RFU) [5]: 757.2242 RFU | Lipase (RFU) [2]: 1026.646 RFU | Lipase (RFU) [3]: 964.4253 RFU

O=c1ccn([C@@H]2O[C@H](CO)[C@@H](OP(=O)(O)O)[C@H]2O)c(=O)[nH]1 [Uridine-3′-monophosphate]
Lipase (RFU) [4]: 718.4579 RFU

NC(=O)C1(N)C=NC=N1 (stereo not drawn) [4-Amino-Imidazole-4-Carboxamide]
Lipase (RFU) [6]: 1133.153 RFU

C=Cc1ccc(O)c(OC)c1 [2-Methoxy-4-vinylphenol]
Lipase (RFU) [2]: 992.1727 RFU

CCCCCCCCCCCCCC(=O)OC(C)C [Isopropyl myristate]
Lipase (RFU) [2]: 1091.869 RFU

COC(=O)[C@@H](C)O [D-Lactic Acid Methyl Ester]
Lipase (RFU) [7]: 813.9106 RFU

COc1nccnc1CC(C)C [2-Isobutyl-3-methoxypyrazine]
Lipase (RFU) [2]: 933.7926 RFU

O=C(O)CCC(=O)O [Succinic Acid]
Lipase (RFU) [5]: 1079.729 RFU | Lipase (RFU) [2]: 982.6487 RFU

CC(=O)c1ccc(C)cc1C [2′,4′-Dimethylacetophenone]
Lipase (RFU) [2]: 702.504 RFU

CC(=O)N[C@@H](Cc1ccccc1)C(=O)O [N-Acetyl-L-phenylalanine]
Lipase (RFU) [3]: 895.4408 RFU

CC(CCC(=O)NCC(=O)O)C1CCC2C3CCC4CC(O)CCC4(C)C3CC(O)C12C (stereo not drawn) [Glycodeoxycholic acid (monohydrate)]
Lipase (RFU) [3]: 1203.201 RFU

N[C@H](Cc1ccc(OP(=O)(O)O)cc1)C(=O)O [O-Phospho-D-Tyrosine]
Lipase (RFU) [4]: 980.7186 RFU

Rebaudioside C
Lipase (RFU) [2]: 1048.24 RFU

CCCCCCCCOC(C)=O [Octyl acetate]
Lipase (RFU) [2]: 1146.859 RFU

CNc1nc2c(ncn2[C@@H]2O[C@H](CO)[C@@H](O)[C@H]2O)c(=O)[nH]1 [Compound N2-Methylguanosine, N2-Methylguanosine]
Lipase (RFU) [3]: 1090.144 RFU

CCCC/C=C\CCCCCCCC(=O)O [Myristoleic acid]
Lipase (RFU) [1]: 1060.378 RFU

NC(=O)CCC(=O)O [Succinamic Acid]
Lipase (RFU) [7]: 722.1343 RFU

CC(=O)N[C@@H](CS)C(=O)O [N-Acetyl-L-Cysteine]
Lipase (RFU) [4]: 1073.744 RFU

CC1=C[C@H](O)CC(C)(C)[C@H]1/C=C/C(C)=C/C=C/C(C)=C/C=C/C=C(C)/C=C/C=C(C)/C=C/C1=C(C)C[C@@H](O)CC1(C)C [Lutein]
Lipase (RFU) [2]: 823.7529 RFU

CCCCCCCCC(=O)O [Nonanoic acid]
Lipase (RFU) [2]: 1267.202 RFU

CC(=O)OCCC(C)CCC=C(C)C (stereo not drawn) [Citronellyl acetate]
Lipase (RFU) [2]: 1072.293 RFU

CNCC(O)c1ccc(O)c(OC)c1 (stereo not drawn) [Metanephrine]
Lipase (RFU) [1]: 993.9043 RFU

CC(O)CCO (stereo not drawn) [1,3-Butanediol]
Lipase (RFU) [2]: 1167.529 RFU

Cc1cc(O)c2c(c1)C(=O)c1cc(O)cc(O)c1C2=O [Emodin]
Lipase (RFU) [3]: 865.2266 RFU

CCCCCCCCCCCCCCCC=O [Hexadecanal]
Lipase (RFU) [3]: 882.5139 RFU

NCCCCNCCCN [Spermidine]
Lipase (RFU) [6]: 994.6739 RFU

CCCCCCCCCCCCCc1cccc(O)c1C(=O)O [Ginkgolic Acid (C13:0)]
Lipase (RFU) [3]: 844.1046 RFU

O=c1c(O)c(-c2ccc(O)c(O)c2)oc2cc(O)ccc12 [Fisetin]
Lipase (RFU) [3]: 1046.219 RFU

O=C(O)CC(CC(=O)O)C(=O)O [Tricarballylic Acid]
Lipase (RFU) [5]: 749.9547 RFU | Lipase (RFU) [3]: 945.9568 RFU

COC(=O)c1ccco1 [Methyl 2-furoate]
Lipase (RFU) [2]: 964.8008 RFU | Lipase (RFU) [3]: 943.7295 RFU

CSC[C@H](N)C(=O)O [S-Methyl-L-Cysteine]
Lipase (RFU) [4]: 642.8406 RFU

O=C(O)CNC(=O)Cc1ccccc1 [Phenylacetylglycine]
Lipase (RFU) [1]: 709.6029 RFU

COc1cc(O)c(C(=O)/C=C/c2ccccc2)c(OC)c1 [Flavokawain B]
Lipase (RFU) [1]: 921.0596 RFU

O=C(O)[C@@H](O)[C@@H](O)[C@H](O)[C@@H](O)C(=O)O [D-Saccharic Acid]
Lipase (RFU) [5]: 1181.227 RFU

NC(N)=NCCS(=O)(=O)O [Guanidinoethyl sulfonate]
Lipase (RFU) [3]: 955.0282 RFU

O=c1cc(-c2ccc(O)cc2)oc2cc(O[C@@H]3O[C@H](CO)[C@@H](O)[C@H](O)[C@H]3O[C@@H]3OC[C@](O)(CO)[C@H]3O)cc(O)c12 [Apiin]
Lipase (RFU) [1]: 1106.584 RFU

OC[C@H]1O[C@H](OC[C@H]2O[C@H](O[C@]3(CO)O[C@H](CO)[C@@H](O)[C@@H]3O)[C@H](O)[C@@H](O)[C@@H]2O)[C@H](O)[C@@H](O)[C@H]1O [Raffinose]
Lipase (RFU) [3]: 676.4373 RFU

N[C@@H](CC(=O)O)C(=O)O [L-Aspartic Acid]
Lipase (RFU) [5]: 875.054 RFU | Lipase (RFU) [6]: 1061.921 RFU | Lipase (RFU) [2]: 484.6137 RFU | Lipase (RFU) (Food-Sourced Compound Library compound added to fresh human milk, thawed at room temperature, RFU <400 considered a hit, listed as L-Aspartic acid): 1047.068 RFU

O=c1ccc2ccccc2o1 [Coumarin]
Lipase (RFU) [2]: 880.5184 RFU

O=C(O)CCc1cnc[nH]1 [Imidazole-5-propionic acid]
Lipase (RFU) [1]: 1084.262 RFU

CCCCCCCCCCCCC [Tridecane]
Lipase (RFU) [3]: 970.7382 RFU

COc1cc(/C=C/C(=O)O)ccc1O.[Na] [Ferulic acid (sodium)]
Lipase (RFU) [2]: 842.3693 RFU

C=C(C)C1CC=C(C)C(O)C1 (mixture of isomers) [Carveol]
Lipase (RFU) [2]: 1221.384 RFU | Lipase (RFU) [3]: 757.9921 RFU

CC(C)=CCCC(C)CCO (stereo not drawn) [Citronellol]
Lipase (RFU) [2]: 1084.092 RFU | Lipase (RFU) [3]: 760.9768 RFU

N[C@@H](CS(=O)(=O)O)C(=O)O [L-Cysteic Acid]
Lipase (RFU) [4]: 958.3734 RFU

Oc1cccc(O)c1O [Pyrogallol]
Lipase (RFU) [3]: 896.8381 RFU

O=C(O)CC(O)C(=O)O (stereo not drawn) [Malic acid]
Lipase (RFU) [2]: 1029.253 RFU

CC(C)CC(=O)Cc1ccccc1 [4-Methyl-1-phenyl-2-pentanone]
Lipase (RFU) [2]: 457.7348 RFU

Cc1ncc(CO)c(C=O)c1O [Pyridoxal]
Lipase (RFU) [6]: 921.5601 RFU

CCCCCCCCCCCCCCCCCCC(=O)O [Nonadecanoic acid]
Lipase (RFU) [1]: 591.1487 RFU

NC(=O)CC[C@H](N)C(=O)O [L-Glutamine]
Lipase (RFU) [5]: 935.2971 RFU | Lipase (RFU) [6]: 832.4002 RFU | Lipase (RFU) [2]: 1107.2 RFU | Lipase (RFU) [1]: 692.9123 RFU

C[C@@H](O)[C@H](N)C(=O)O [L-Threonine]
Lipase (RFU) [5]: 828.6034 RFU | Lipase (RFU) [6]: 873.9208 RFU | Lipase (RFU) [2]: 824.5923 RFU | Lipase (RFU) [1]: 1040.183 RFU

NCCCCN [Putrescine]
Lipase (RFU) [7]: 985.579 RFU | Lipase (RFU) [6]: 1083.038 RFU

N[C@@H](Cc1c[nH]cn1)C(=O)O [L-Histidine]
Lipase (RFU) [7]: 781.9838 RFU | Lipase (RFU) [6]: 980.1322 RFU | Lipase (RFU) [2]: 830.4988 RFU | Lipase (RFU) [1]: 782.5529 RFU

C=C[C@H]1C[N@@]2CC[C@H]1C[C@@H]2[C@@H](O)c1ccnc2ccc(OC)cc12 [Quinidine]
Lipase (RFU) [2]: 1032.063 RFU

Cc1ccc2oc(=O)ccc2c1 [Compound 6-Methylcoumarin, 6-Methylcoumarin]
Lipase (RFU) [2]: 982.8899 RFU

O=C(O)CCCCCCCCC(=O)O [Decanedioic acid]
Lipase (RFU) [3]: 1153.062 RFU

CO[C@@H]1[C@H](O)[C@@H](CO)O[C@H]1n1cnc2c(N)ncnc21 [2′-O-Methyladenosine]
Lipase (RFU) [1]: 933.0337 RFU

C#C[C@]1(O)CC[C@H]2[C@@H]3CCC4=CC(=O)CC[C@@H]4[C@H]3CC[C@@]21C [Norethindrone]
Lipase (RFU) [3]: 979.6645 RFU

CC(C)=CCC/C(C)=C/COc1c2occc2cc2ccc(=O)oc12 [8-Geranyloxypsoralen]
Lipase (RFU) [3]: 922.8975 RFU

Nc1ncnc2c1ncn2[C@@H]1O[C@H](COP(=O)(O)OP(=O)(O)O)[C@@H](O)[C@H]1O [Adenosine 5′-diphosphate]
Lipase (RFU) [3]: 861.1249 RFU
